Assay [1] deals with CDK4/CyclinD1 (Homo sapiens, UniProt P11802). As to the kind of experiment: CDK4/CyclinD1 kinase inhibitory activity (Caliper mobility shift). Conditions: read-out: CDK4/Cyclin D1 IC50; enzyme 20 nM, ATP 672 uM, 28° C. 30 min. On the procedure:
CDK4/CyclinD1 kinase inhibitory activity (IC50): 5 μl of various dilutions of test compound in 1× kinase buffer (20 mM HEPES, pH 7.5, 10 mM MgCl2, 2 mM DTT and 0.01% Triton X-100) was mixed with 10 μL of either CDK4/Cyclin D1 (ProQinase, 0142-0143-1 #, final concentration 20 nM in 1× Kinase buffer) or in 384 plates and incubated at room temperature for 10 min. To initiate each reaction, 10 μL of peptide solution containing fluorescently-labeled-peptide 8(5-FAM-IPTSPITTTYFFFKKK-COOH, GL, 112396 #, final concentration 3000 nM) and ATP (final concentration 672 uM for CDK4/CyclinD1) in 1×Kinase buffer was added to each of the wells containing test compound and CDK4/CyclinD1 mixture. The reaction is then allowed to proceed at 28° C. for 30 min and terminated by the addition of 25 μL stop buffer (100 mM HEPES pH 7.5, 50 mM EDTA, 0.2% Coating Reagent #3 (Perkin Elmer, 760050 #) and 0.015% Brij-35).
(§1) Following the kinase reaction, Caliper EZ reader II (Downstream voltages: −500V, Upstream voltages: −2250V, Base pressure −0.5 PSI, Screen pressure −1.2 PSI) was used to separate the phosphorylated (product) and the unphosphorylated (substrate) fluorescently-labeled peptide 8 based on their different mobility. Both substrate and product were measured and the ratio of these values were used to generate % conversion by Caliper EZ reader II. These conversion values were then transformed into % inhibition of kinase activity using the formula: % Inhibition=[(MA−X)/(MA−MI)]×100% where MA=conversion value of DMSO only controls, MI=conversion value of no enzyme controls and X=conversion value at any given compound dose. IC50 values were then calculated by plotting dose-response curves and then using the XLfit application in Excel software.

Sequences of proteins named here, by UniProt entry; tags and fusion partners are left off.
UniProt P11802, whole entry: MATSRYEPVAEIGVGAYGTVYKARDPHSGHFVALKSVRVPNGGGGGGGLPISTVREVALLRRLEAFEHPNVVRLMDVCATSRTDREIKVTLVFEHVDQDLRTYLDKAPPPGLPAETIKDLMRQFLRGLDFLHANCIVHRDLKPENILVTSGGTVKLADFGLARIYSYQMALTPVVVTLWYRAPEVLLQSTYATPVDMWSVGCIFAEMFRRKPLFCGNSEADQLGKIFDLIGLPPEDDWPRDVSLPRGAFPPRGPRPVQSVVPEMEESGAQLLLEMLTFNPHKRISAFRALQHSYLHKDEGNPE
UniProt Q00534, whole entry: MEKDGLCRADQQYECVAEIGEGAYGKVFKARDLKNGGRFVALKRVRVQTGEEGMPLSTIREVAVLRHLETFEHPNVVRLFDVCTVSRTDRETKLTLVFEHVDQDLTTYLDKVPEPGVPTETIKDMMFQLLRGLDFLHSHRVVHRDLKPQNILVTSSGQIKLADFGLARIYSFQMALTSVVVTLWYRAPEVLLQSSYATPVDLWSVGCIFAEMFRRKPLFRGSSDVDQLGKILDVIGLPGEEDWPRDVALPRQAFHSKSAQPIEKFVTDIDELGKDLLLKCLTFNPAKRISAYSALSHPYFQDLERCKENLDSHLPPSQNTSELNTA
UniProt P06493, whole entry: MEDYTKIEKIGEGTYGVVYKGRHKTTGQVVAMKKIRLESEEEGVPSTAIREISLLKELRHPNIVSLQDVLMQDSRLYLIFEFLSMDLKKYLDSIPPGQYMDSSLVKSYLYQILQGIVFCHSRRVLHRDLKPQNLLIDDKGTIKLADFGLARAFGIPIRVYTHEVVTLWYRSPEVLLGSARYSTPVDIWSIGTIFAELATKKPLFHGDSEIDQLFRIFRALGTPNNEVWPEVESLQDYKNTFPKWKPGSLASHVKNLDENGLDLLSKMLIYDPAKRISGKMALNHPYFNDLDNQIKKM
UniProt P50613, whole entry: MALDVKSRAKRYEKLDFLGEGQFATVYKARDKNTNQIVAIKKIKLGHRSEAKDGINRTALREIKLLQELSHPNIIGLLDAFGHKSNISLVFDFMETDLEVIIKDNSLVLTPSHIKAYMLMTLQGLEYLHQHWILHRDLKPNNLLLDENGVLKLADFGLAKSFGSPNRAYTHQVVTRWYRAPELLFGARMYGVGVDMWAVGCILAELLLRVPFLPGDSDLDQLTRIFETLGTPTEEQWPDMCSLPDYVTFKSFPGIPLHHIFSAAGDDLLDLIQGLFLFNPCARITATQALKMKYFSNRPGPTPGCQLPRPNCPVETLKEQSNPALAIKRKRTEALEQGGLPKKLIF
UniProt P50750, whole entry: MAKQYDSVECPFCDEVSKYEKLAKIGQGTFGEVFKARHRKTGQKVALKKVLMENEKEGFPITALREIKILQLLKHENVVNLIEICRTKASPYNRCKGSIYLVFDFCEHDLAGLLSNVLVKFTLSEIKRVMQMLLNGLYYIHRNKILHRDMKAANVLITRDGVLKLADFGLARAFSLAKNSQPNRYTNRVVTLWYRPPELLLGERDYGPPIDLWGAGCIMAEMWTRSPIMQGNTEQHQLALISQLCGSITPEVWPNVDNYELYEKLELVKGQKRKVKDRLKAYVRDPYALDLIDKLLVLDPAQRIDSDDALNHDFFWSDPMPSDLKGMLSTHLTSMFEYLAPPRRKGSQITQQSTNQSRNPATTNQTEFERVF
UniProt P30281, whole entry partner: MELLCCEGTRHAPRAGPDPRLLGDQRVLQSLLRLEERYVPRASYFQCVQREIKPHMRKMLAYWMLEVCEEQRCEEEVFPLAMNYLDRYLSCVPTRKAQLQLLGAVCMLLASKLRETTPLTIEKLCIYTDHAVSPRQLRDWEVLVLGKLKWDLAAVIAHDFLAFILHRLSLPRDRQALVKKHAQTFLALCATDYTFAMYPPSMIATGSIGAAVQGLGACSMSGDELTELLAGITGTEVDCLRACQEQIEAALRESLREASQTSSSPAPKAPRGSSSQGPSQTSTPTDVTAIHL
UniProt P24385, whole entry partner: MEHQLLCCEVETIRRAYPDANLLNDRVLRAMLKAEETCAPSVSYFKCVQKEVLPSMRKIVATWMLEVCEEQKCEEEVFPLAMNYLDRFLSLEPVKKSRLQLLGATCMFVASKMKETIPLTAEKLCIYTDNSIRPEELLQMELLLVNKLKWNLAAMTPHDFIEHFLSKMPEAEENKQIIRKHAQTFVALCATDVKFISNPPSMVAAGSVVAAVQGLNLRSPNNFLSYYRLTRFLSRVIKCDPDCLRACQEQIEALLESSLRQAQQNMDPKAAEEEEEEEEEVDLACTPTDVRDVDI
UniProt P51948, whole entry partner: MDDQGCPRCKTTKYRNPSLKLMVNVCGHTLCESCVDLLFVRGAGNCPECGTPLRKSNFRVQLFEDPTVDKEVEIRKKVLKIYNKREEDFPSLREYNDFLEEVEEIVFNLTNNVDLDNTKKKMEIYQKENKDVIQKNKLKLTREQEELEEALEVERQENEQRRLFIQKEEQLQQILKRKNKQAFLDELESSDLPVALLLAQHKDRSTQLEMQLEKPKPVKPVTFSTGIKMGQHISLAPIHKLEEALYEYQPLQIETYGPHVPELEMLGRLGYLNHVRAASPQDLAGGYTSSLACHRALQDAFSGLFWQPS
UniProt P51946, whole entry partner: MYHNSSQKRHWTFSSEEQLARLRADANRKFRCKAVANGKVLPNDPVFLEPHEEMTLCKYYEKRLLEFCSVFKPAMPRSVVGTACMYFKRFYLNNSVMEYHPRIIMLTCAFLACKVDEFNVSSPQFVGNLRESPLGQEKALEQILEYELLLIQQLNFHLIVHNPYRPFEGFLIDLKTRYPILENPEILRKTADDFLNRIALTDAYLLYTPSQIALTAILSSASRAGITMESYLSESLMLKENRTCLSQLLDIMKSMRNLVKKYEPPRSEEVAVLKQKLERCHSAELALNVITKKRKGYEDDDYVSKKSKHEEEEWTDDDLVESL
UniProt P14635, whole entry partner: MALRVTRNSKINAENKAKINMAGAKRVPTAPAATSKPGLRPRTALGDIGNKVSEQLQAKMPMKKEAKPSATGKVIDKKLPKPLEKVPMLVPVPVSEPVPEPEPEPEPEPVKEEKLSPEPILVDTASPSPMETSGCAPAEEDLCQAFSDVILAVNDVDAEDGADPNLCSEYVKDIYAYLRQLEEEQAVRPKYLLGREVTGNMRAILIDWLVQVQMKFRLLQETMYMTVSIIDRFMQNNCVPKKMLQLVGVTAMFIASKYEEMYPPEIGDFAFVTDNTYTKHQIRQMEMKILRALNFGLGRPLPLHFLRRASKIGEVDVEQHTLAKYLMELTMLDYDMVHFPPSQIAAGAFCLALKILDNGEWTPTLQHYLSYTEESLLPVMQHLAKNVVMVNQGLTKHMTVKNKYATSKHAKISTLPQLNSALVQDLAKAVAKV
UniProt O60563, whole entry partner: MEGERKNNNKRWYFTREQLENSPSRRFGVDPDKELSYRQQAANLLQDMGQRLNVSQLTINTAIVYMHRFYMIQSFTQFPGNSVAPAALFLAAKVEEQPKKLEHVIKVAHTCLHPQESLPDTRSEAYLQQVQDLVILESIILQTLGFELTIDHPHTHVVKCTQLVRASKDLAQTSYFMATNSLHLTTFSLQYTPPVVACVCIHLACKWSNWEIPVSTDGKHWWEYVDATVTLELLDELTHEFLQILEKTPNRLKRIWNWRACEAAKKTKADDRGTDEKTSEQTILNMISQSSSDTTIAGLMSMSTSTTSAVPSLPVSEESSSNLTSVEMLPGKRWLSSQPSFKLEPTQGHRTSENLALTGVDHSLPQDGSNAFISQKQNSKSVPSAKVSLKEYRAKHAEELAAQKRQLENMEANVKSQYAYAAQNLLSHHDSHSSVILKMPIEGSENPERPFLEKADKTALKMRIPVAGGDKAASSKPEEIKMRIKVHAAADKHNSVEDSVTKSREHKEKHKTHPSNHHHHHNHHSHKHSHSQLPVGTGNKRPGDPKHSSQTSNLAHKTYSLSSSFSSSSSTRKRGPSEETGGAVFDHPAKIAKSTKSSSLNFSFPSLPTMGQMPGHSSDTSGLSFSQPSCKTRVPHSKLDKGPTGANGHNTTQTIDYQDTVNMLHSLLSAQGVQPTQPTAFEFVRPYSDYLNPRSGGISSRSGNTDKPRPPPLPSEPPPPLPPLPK

Assay [2] concerns the target CDK6/CyclinD3 (Homo sapiens, UniProt Q00534). As to the kind of experiment: CDK6/CyclinD3 kinase inhibitory activity (Caliper mobility shift). The note with it: read-out: CDK6/Cyclin D3 IC50; enzyme 15 nM, ATP 800 μM, 28° C. 30 min. As to the method:
CDK6/CyclinD3 kinase inhibitory activity (IC50): 5 μl of various dilutions of test compound in 1× kinase buffer (50 mM HEPES pH 7.5, 10 mM MgCl2, 2 mM DTT and 0.01% Brij-35) was mixed with 10 μL of CDK6/CyclinD3 (Carna, 04-107 #, final concentration 15 nM in 1× Kinase buffer) in 384 plates and incubated at room temperature for 10 min. To initiate each reaction, 10 μL of peptide solution containing fluorescently-labeled -peptide 8(5-FAM-IPTSPITTTYFFFKKK-COOH, GL, 112396 #, final concentration 3000 nM) and ATP (final concentration 800 μM for CDK6/CyclinD3 in 1× Kinase buffer was added to each of the wells containing test compound and CDK6/CyclinD3. The reaction is then allowed to proceed at 28° C. for 30 min and terminated by the addition of 25 μL stop buffer (100 mM HEPES pH 7.5, 50 mM EDTA, 0.2% Coating Reagent #3 (Perkin Elmer, 760050 #) and 0.015% Brij-35).
as §1

In assay [3] the target is CDK1/CyclinB (Homo sapiens, UniProt P06493). Briefly: CDK1/CyclinB kinase inhibitory activity (Caliper mobility shift). The note with it: read-out: CDK1/Cyclin B1 IC50; enzyme 3 nM, ATP 20 μM, 28° C. 30 min. As to the method:
CDK1/CyclinB kinase inhibitory activity (IC50): 5 μl of various dilutions of test compound in 1× kinase buffer (50 mM HEPES pH 7.5, 10 mM MgCl2, 2 mM DTT and 0.01% Brij-35) was mixed with 10 μL of CDK1/CyclinB (Millipore, 14-450M #, final concentration 3 nM in 1× Kinase buffer) in 384 plates and incubated at room temperature for 10 min. To initiate each reaction, 10 μL of peptide solution containing fluorescently-labeled-peptide 18(5-FAM-QSPKKG-CONH2) (GL, 114202 #, final concentration 3000 nM) and ATP (final concentration 20 μM) in 1× Kinase buffer was added to each of the wells containing test compound and CDK1/CyclinB mixture. […]
(§2) Following the kinase reaction, Caliper EZ reader II (Downstream voltages: −500V, Upstream voltages: −2250V, Base pressure −0.5 PSI, Screen pressure −1.2 PSI) was used to separate the phosphorylated (product) and the unphosphorylated (substrate) fluorescently-labeled peptide 18 based on their different mobility. Both substrate and product were measured and the ratio of these values were used to generate % conversion by Caliper EZ reader II. […] IC50 values were then calculated by plotting dose-response curves and then using the XLfit application in Excel software.

For assay [4], the target named is CDK2/CyclinE1 (Homo sapiens, UniProt P24941). As to the kind of experiment: CDK2/CyclinE1 kinase inhibitory activity (Caliper mobility shift). Conditions: read-out: CDK2/Cyclin E1 IC50; enzyme 3 nM, ATP 77 μM, 28° C. 30 min. On the procedure: CDK2/CyclinE1 kinase inhibitory activity (IC50): 5 μl of various dilutions of test compounds in 1×kinase buffer (50 mM HEPES pH 7.5, 10 mM MgCl2, 2 mM DTT and […] Brij-35) were mixed with 10 μL of CDK2/CyclinE1 (Carna, 04-165 #, final concentration 3 nM in 1×Kinase buffer) in 384 plates and incubated at room temperature for 10 min. To initiate each reaction, 10 μL of peptide solution containing fluorescently-labeled-peptide 18(5-FAM-QSPKKG-CONH2) (GL, 114202 #, final concentration 3000 nM) and ATP (final concentration 77 μM) in 1×Kinase buffer was added to each of the wells containing test compound and CDK2/CyclinE1 mixture. […]
as §2

Assay [5] deals with CDK7/CyclinH/MAT1 (Homo sapiens, UniProt P50613). Briefly: CDK7/CyclinH/MAT1 kinase inhibitory activity (Caliper mobility shift). Conditions: read-out: CDK7/Cyclin H/MAT1 IC50; enzyme 12.5 nM, ATP 70 μM, 28° C. 30 min. On the procedure: (§3) CDK7/CyclinH/MAT1 kinase inhibitory activity (IC50): 5 μl of various dilutions of test compound in 1× kinase buffer (20 mM HEPES, pH 7.5, 10 mM MgCl2, 2 mM DTT and 0.01% Triton X-100) was mixed with 10 μL of CDK7/CyclinH/MAT1 (Millipore, 14-476M #, final concentration 12.5 nM in 1× Kinase buffer) in 384 plates and incubated at room temperature for 10 min. To initiate each reaction, 10 μL of peptide solution containing fluorescently-labeled-peptide CTD3 (5-FAM-[…], GL, SY346885 #, final concentration 3000 nM) and ATP (final concentration 70 μM) in 1× Kinase buffer was added to each of the wells containing test compound and CDK7/CyclinH/MAT1 mixture. […]
Following the kinase reaction, Caliper EZ reader II (Downstream voltages: −500V, Upstream voltages: −2250V, Base pressure −0.5 PSI, Screen pressure −1.2 PSI) was used to separate the phosphoiylated (product) and the unphosphorylated (substrate) fluorescently-labeled peptide CTD3 based on their different mobility. Both substrate and product were measured and the ratio of these values were used to generate % conversion by Caliper EZ reader II. […] IC50 values were then calculated by plotting dose-response curves and then using the XLfit application in Excel software.

Assay [6] has as its target CDK9/CyclinT1 (Homo sapiens, UniProt P50750). Briefly: CDK9/CyclinT1 kinase inhibitory activity (Caliper mobility shift). The note with it: read-out: CDK9/Cyclin T1 IC50; enzyme 12.5 nM, ATP 10M, 28° C. 30 min. On the procedure: as §3, with “CDK9/CyclinT1” for “CDK7/CyclinH/MAT1”, “14-685M” for “14-476M”, “fluorescently-labeled -peptide” for “fluorescently-labeled-peptide”, “[…])” for “70 μM)”
Following the kinase reaction, Caliper EZ reader II (Downstream voltages: −500V, Upstream voltages: −2250V, Base pressure −0.5 PSI, Screen pressure −1.2 PSI) was used to separate the phosphorylated (product) and the unphosphorylated (substrate) fluorescently-labeled peptide CTD3 based on their different mobility. Both substrate and product were measured and the ratio of these values were used to generate % conversion by Caliper EZ reader II. […] IC50 values were then calculated by plotting dose-response curves and then using the XLfit application in Excel software.

Consider five compounds from patent US20260242395A1, “AMINOHETEROARYL KINASE INHIBITORS” (ALLORION THERAPEUTICS INC, priority 2022, published 2026).

Consider `CC(C)(O)c1ccnc2ccc(-c3nc(N[C@@H]4CCOC[C@H]4O)ncc3Cl)cc12`, for which the IC50 lay within 0.01 to 0.1 µM in assay [1] and 0.1 to 1 µM in assay [2].
As to `CC1(C)Cc2cnc3c(F)cc(-c4nc(Nc5ccc(-c6c[nH]cn6)cn5)ncc4Cl)cc3c2CN1`, the IC50 is 0.1 to 1 µM in assay [3]; 0.1 to 1 µM in assay [4]; less than 0.01 µM in assay [1]; 0.01 to 0.1 µM in assay [2]; greater than 1 µM in assay [5]; 0.01 to 0.1 µM in assay [6].
Take `CC(NC1CC1)c1cnc2c(F)cc(-c3nc(N[C@@H]4CCOC[C@H]4O)ncc3Cl)cc2c1` (single isomer, unassigned) [79b]: the results for the IC50 in assay [1] and in assay [2] were 0.01 to 0.1 µM and 0.1 to 1 µM, respectively.
For `CCc1nc2c(F)cc(-c3nc(N[C@@H]4CCOC[C@H]4O)ncc3Cl)cc2cc1C(C)(C)O`, in that order: less than 0.01 µM and 0.01 to 0.1 µM.
For `CC(NC1CC1)c1cnc2c(F)cc(-c3nc(N[C@@H]4CCOC[C@H]4O)ncc3Cl)cc2c1` (single isomer, unassigned) [79a], in that order: less than 0.01 µM and 0.1 to 1 µM.
